The test deals with Human Polymorphonuclear Leukocyte Elastase (Homo sapiens, UniProt P08246). The settings on record: read-out: ED50; 50% inhibition of enzyme activity 2 minutes after zero time; crude PMN extract, 0.2 mM Boc-AAPAN, pH 7.5, 410 mμ.

Chains of the proteins cited; added tags and fusions are not shown. Residues count along the entry.
UniProt P08246, 30-267 limits assumed: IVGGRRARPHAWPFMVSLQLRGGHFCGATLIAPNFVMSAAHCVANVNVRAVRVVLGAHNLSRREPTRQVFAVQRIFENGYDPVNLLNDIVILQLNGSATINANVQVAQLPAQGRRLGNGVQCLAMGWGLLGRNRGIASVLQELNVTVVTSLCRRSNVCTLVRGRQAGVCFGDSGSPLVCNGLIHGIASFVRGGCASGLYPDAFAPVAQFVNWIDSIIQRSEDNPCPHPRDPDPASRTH

With `CC(=O)OCC1=C(C(=O)OC(C)(C)C)N2C(=O)[C@H](Cl)[C@H]2SC1`, the IC50 stood at 1440 nM.

(Values after patent US4637999A, “Substituted cephalosporins as anti-inflammatory and antidegenerative agents” (Merck & Co., Inc., priority 1983, dated 1987).)
